In data set [1] the target is T1, human P450 1B1 (Homo sapiens, UniProt Q16678).
T1 sequence (Q16678 1-543): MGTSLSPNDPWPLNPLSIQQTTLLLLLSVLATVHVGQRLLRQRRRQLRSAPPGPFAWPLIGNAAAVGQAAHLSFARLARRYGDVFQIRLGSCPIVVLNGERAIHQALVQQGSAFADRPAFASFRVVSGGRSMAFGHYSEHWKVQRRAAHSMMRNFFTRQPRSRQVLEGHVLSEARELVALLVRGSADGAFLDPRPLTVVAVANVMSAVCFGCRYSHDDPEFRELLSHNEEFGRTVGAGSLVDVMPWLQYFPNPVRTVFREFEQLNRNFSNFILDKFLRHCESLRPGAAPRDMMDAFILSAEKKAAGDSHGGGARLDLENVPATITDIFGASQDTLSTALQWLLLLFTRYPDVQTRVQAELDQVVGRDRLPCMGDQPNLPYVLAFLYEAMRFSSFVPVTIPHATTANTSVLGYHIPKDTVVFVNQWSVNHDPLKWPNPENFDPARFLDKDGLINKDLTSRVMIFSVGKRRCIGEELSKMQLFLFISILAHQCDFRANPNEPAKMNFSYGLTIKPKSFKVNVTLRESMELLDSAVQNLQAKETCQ
The experiment in a line: biochemical.

The target in data set [2] is T1, human P450 1B1. The experiment in a line: Spectral binding titration.

Here are results for 2 compounds from publication PMC3845904 (Chemical research in toxicology, 2009).

As usually defined, the IC50 is the concentration at which inhibition is half-maximal. Read a high IC50 as a need for much substance. By Kd is commonly meant the constant that tells how readily two partners part at equilibrium.

`COc1cc(C=Cc2ccc(OC)cc2OC)cc(OC)c1` [TMS, 2,4,3′,5′-tetramethoxystilbene, reference compound] showed a half-inhibitory concentration (IC50) in data set [1] of 0.023 ± 0.003 µM. Moreover, the equilibrium dissociation constant (Kd) in data set [2] came to 4.3 ± 0.7 µM. Besides, the “Reverse Type I spectra ΔAmax” value in data set [2] (purified P450 1B1 1.0 μM, means ± SEs, ND = not detected at 100 μM) stood at 0.047 ± 0.003.

As to `O=c1cc(-c2ccccc2)oc2c1ccc1ccccc12` [ANF, α-naphthoflavone, reference compound], the IC50 in data set [1] is 0.0033 ± 0.0003 µM. Moreover, the Kd in data set [2] is 12 ± 1.6 µM.
